Legend:
[1] = In-vitro-liberation of scopolamine and physostigmine into physiological saline (rotating cylinder); settings: from the TTS of the Example, physiological saline solution
[2] = Clinical tolerance study of physostigmine skin patches with Scopoderm TTS; settings: voluntary test persons; double-blind against placebo

| Compound | Accumulated release after 2 h [1] [mg/cm^2] | Accumulated release after 4 h [1] [mg/cm^2] | Accumulated release after 8 h [1] [mg/cm^2] | Accumulated release after 24 h [1] [mg/cm^2] | suppressing the undesired effects caused by physostigmine, in particular nausea and vomiting [2] |
| --- | --- | --- | --- | --- | --- |
| CN1[C@@H]2C[C@@H](OC(=O)[C@H](CO)c3ccccc3)C[C@H]1[C@@H]1O[C@@H]12 | 0.1 | 0.14 | 0.20 | 0.33 | effective |
| CNC(=O)Oc1ccc2c(c1)[C@]1(C)CCN(C)[C@@H]1N2C | 0.5 | 0.69 | 1.02 | 1.71 | – |

From US5939095A, “Transdermal therapeutic system and a process for the combined transdermal application of physostigmine and scopolamine for the prophylaxis and pretreatment of a poisoning caused by highly toxic organophosphorus neurotoxins in particular soman” (dated 1999)
